Apparent affinities of Ab-91 variants for a coronavirus HR2 peptide

Source: Engelhart et al. 2022 (doi:10.1038/s41597-022-01779-4), MIT Lincoln Laboratory and A-Alpha Bio; data file from the FLAb repository.

Target: peptide PDVDLGDISGINAS, taken from heptad repeat 2 (HR2) of SARS-CoV-2 spike.

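In library AAYL51, one, two or three CDR residues were substituted; doubles and triples were drawn at random. In AlphaSeq, yeast of one mating type display the scFv and yeast of the other type display the target. Binding brings cells together so that they mate, and sequencing counts the barcode pairs among the diploids. Scores were corrected for input abundance and mapped to Kd with protein pairs of known affinity run in the same pool. There are three technical replicates.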

Parent scFv Ab-91: VL joined to VH by the linker GGGGSGGGGSGGGGS. Changes lie in the heavy chain CDRs alone.
VL: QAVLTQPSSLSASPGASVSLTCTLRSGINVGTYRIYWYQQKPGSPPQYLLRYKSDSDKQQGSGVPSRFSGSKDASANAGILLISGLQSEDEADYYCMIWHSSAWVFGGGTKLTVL
VH: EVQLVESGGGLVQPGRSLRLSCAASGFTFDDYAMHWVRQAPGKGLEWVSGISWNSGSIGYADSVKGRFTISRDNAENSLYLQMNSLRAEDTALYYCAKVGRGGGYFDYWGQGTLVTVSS

Positions count from residue 1 of the parent VH; W53E puts E in place of W. All variants listed here change G103 of the VH, counted from its first residue. Values are apparent Kd, the geometric mean of the replicates that gave a signal; lower means stronger binding. "nd" means that the variant was in the library but no mating with the target was seen in any replicate; the authors take this as a sign of poor binding, and no number exists. As a blank, each scFv also met three strains without target: over library AAYL51, 21% of these pairings were detected, typically at 34 µM and seldom below 1.8 µM.

W53E G103F: 16 µM (2 of 3 replicates).
N54G G59P G103V: nd (0 of 3 replicates).
D62C G100C G103K: 48 µM (1 of 3 replicates).
H35N G103V Y108N: nd (0 of 3 replicates).
S57V G103F D107V: nd (0 of 3 replicates).
S57G G103R G104V: 110 µM (1 of 3 replicates).
W53G K65T G103Y: nd (0 of 3 replicates).
Y32L N54M G103V: nd (0 of 3 replicates).
G56C G103P Y105C: 60 nM (3 of 3 replicates).
G50R G103T F106R: nd (0 of 3 replicates).
F27Y S55F G103T: nd (0 of 3 replicates).
T28D G103S F106Y: 36 µM (1 of 3 replicates).
F27Y D31A G103D: nd (0 of 3 replicates).
T28C I51Q G103I: 29 µM (1 of 3 replicates).
D62H S63R G103I: 620 nM (3 of 3 replicates).
S52V K65F G103S: nd (0 of 3 replicates).
Y32K G103F: 13 µM (1 of 3 replicates).
A61W G103N Y108F: 170 µM (2 of 3 replicates).
G26H R101A G103F: 240 µM (3 of 3 replicates).
M34P G103N Y108V: nd (0 of 3 replicates).
D30K H35S G103F: 2.4 µM (2 of 3 replicates).
H35M G103F: 4.7 µM (1 of 3 replicates).
I51N G103K G104W: 100 µM (1 of 3 replicates).
G100W G103W: 2.6 nM (3 of 3 replicates).
Y60H G100R G103L: 30 µM (1 of 3 replicates).
M34S Y60P G103T: 20 µM (1 of 3 replicates).
I58W G59T G103D: 340 µM (2 of 3 replicates).
M34S G103H Y105M: 1.3 mM (1 of 3 replicates).
G26V D62W G103H: nd (0 of 3 replicates).
S55L V64R G103T: 21 µM (2 of 3 replicates).
I51P G103F: nd (0 of 3 replicates).
G59Q S63W G103C: nd (0 of 3 replicates).
D30L S57W G103P: 190 µM (3 of 3 replicates).
I51K S52I G103F: 130 µM (2 of 3 replicates).
V99C R101H G103M: 130 µM (1 of 3 replicates).
D31T K65H G103P: nd (0 of 3 replicates).
V99R G103D G104D: nd (0 of 3 replicates).
G59N G100Q G103M: nd (0 of 3 replicates).
G50M G103S: 190 µM (2 of 3 replicates).
A61C G103W Y108A: nd (0 of 3 replicates).
G50T D62P G103P: 4.3 µM (1 of 3 replicates).
S52C G103F: 120 µM (3 of 3 replicates).
I51Q Y60E G103H: nd (0 of 3 replicates).
W53F G103I F106Y: nd (0 of 3 replicates).
S55I V64T G103T: 39 µM (3 of 3 replicates).
G26W A33K G103H: nd (0 of 3 replicates).

Extract of 3 entries:

changes,apparent Kd,detected
I51K S52I G103F,130 µM,2 of 3
I58W G59T G103D,340 µM,2 of 3
V99C R101H G103M,130 µM,1 of 3